Only a part is listed here, and it is no random draw. Some salts or complexes appear as unconnected parts, following the source record. Active and inactive are the calls of the source. Rule as the data show it: active = inhibition above about 32%; inactive = the rest.
Experiment: TEAD-YAP interaction inhibition, primary screen, TEAD-YAP interaction inhibitor project, luminescence, HEK-TIYL cells (AID 1259422);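 also: 0% = median of test compound wells and 100% = reference inhibitor wells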
Conditions: TEAD-Gal4/YAP UAS-luciferase luminescence, at 9.12 µM, stronger effect = higher value

| SMILES | inhibition |
| --- | --- |
| O=C(c1c([N+](=O)[O-])cc([N+](=O)[O-])cc1[N+](=O)[O-])N1CCOCC1 | inactive: -8.96% |
| CCOC(=O)c1ccc(NP(C)(=O)Oc2ccc(F)cc2)cc1 (stereo not given) | inactive: 2.51% |
| Cc1ccc(Cl)c(OP(C)(=O)Nc2cccnc2)c1 (stereo not given) | inactive: -0.21% |
| CP(=O)(O)OC(c1ccccc1)C(Cl)(Cl)Cl (stereo not given) | inactive: 1.06% |
| Cc1ccc(NP(C)(=O)Oc2ccc(Cl)cc2)cc1 (stereo not given) | inactive: 15.6% |
| COc1cc2c(cc1NP(C)(=O)Oc1ccccc1)oc1ccccc12 (stereo not given) | inactive: -2.23% |
| CP(=O)(Nc1ccccc1)Oc1ccc(F)cc1 (stereo not given) | inactive: 3.74% |
| C=CCN1CCN(CCOC(=O)C(O)(c2ccccc2)c2ccccc2)CC1 | inactive: 0.64% |
| O=[N+]([O-])c1ccc(Nc2c([N+](=O)[O-])cc([N+](=O)[O-])cc2[N+](=O)[O-])cc1 | active: 88.9% |
| CN(C)CCOC(=O)C(O)(c1ccccc1)C1CCCCC1 (stereo not given) | inactive: 0.89% |
| O=[N+]([O-])c1cc([N+](=O)[O-])c(Nc2c([N+](=O)[O-])cc([N+](=O)[O-])cc2[N+](=O)[O-])c([N+](=O)[O-])c1 | inactive: 12.4% |
| CC(=O)OC1(C#N)CN2CCC1CC2 (stereo not given) | inactive: -1.22% |
| COc1ccc(NP(C)(=O)Oc2ccccc2OC)cc1 (stereo not given) | inactive: 1.39% |
| O=[N+]([O-])c1cc([N+](=O)[O-])c(NCC2CCS(=O)(=O)C2)c([N+](=O)[O-])c1 (stereo not given) | inactive: 1.51% |
| Cc1cc(-c2cccc3ccccc23)c(C)cn1.O=[N+]([O-])c1cc([N+](=O)[O-])c(O)c([N+](=O)[O-])c1 | inactive: 3.41% |
| CP(=O)(O)Oc1cccc(Cl)c1Cl | inactive: -5.35% |
| COc1ccc(OP(C)(=O)Nc2ccccc2)cc1 (stereo not given) | inactive: 2.33% |
| [N-]=[N+]=NCN1c2nonc2N(CN=[N+]=[N-])c2nonc21 | inactive: -2.65% |
| Cc1c([N+](=O)[O-])c(C)c([N+](=O)[O-])c(C)c1[N+](=O)[O-] | inactive: 8.21% |
| Cc1ccc(Cl)c(OP(C)(=O)Nc2ccc(F)cc2)c1 (stereo not given) | inactive: 4.86% |
| CP(=O)(O)OC(c1ccccc1)C(F)(F)C(F)(F)F (stereo not given) | inactive: 1.34% |
| COC(=O)Nc1nc2ccccc2[nH]1.O=C1CCCN1c1ccc(S(=O)(=O)O)cc1[N+](=O)[O-] | inactive: 25.2% |
| CCN(CC)c1c([N+](=O)[O-])cc([N+](=O)[O-])cc1[N+](=O)[O-] | inactive: -1.28% |
| CP(=O)(Nc1ccc2c(c1)OCCO2)Oc1ccccc1 (stereo not given) | inactive: 8.37% |
| Cc1ccccc1NP(C)(=O)Nc1ccccc1C | inactive: 0.86% |

| SMILES | inhibition |
| --- | --- |
| CP(=O)(O)OC(c1ccccc1)C(Cl)(Cl)C(F)(F)F (stereo not given) | inactive: -10.7% |
| Nc1nonc1-c1no[n+]([O-])c1-c1nonc1N | inactive: 30.6% |
| CCN(CC)C(=O)c1c([N+](=O)[O-])cc([N+](=O)[O-])cc1[N+](=O)[O-] | inactive: 19.3% |
| COc1ccc(NP(C)(=O)Oc2ccc(Cl)cc2)cc1 (stereo not given) | inactive: -2.45% |
| Cc1cc(-c2nc3ccccc3[nH]2)c2ccccc2n1.O=[N+]([O-])c1cc([N+](=O)[O-])c(O)c([N+](=O)[O-])c1 | inactive: 6.44% |
| CN(C)/N=C/c1ccc(-c2c([N+](=O)[O-])cc([N+](=O)[O-])cc2[N+](=O)[O-])o1 | inactive: 5.07% |
| CP(=O)(Nc1ccc(Br)cc1)Oc1ccc(Cl)cc1 (stereo not given) | inactive: 8.71% |
| CCOC(=O)C(CC)C1=NC(C)(C)Cc2ccccc21.O=[N+]([O-])c1cc([N+](=O)[O-])c(O)c([N+](=O)[O-])c1 (stereo not given) | inactive: 0.92% |
| COc1ccccc1OP(C)(=O)Nc1c(C)cccc1C (stereo not given) | inactive: -20.1% |
| CCN(CC)C(C)COC(=O)C(O)(c1ccccc1)c1ccccc1 (stereo not given) | inactive: -11.9% |
| Cc1cc(N(C)C)cc[n+]1C(=O)N(C)C.c1ccc([B-](c2ccccc2)(c2ccccc2)c2ccccc2)cc1 | inactive: -9.27% |
| CCCOc1ccc(NP(C)(=O)Oc2ccccc2OC)cc1 (stereo not given) | inactive: -2.13% |
| CP(=O)(Nc1cccc(Br)c1)Oc1ccc(Cl)cc1 (stereo not given) | inactive: 14.5% |
| Nc1c([N+](=O)[O-])cc([N+](=O)[O-])c(Nc2ccc(C(=O)O)cc2)c1[N+](=O)[O-] | inactive: 14.4% |
| Cc1ccc(Cl)c(OP(C)(=O)Nc2ccccn2)c1 (stereo not given) | inactive: -8.36% |
| O=[N+]([O-])Nc1nc(CCc2n[nH]c(N[N+](=O)[O-])n2)n[nH]1 | inactive: -2.68% |
| O=[N+]([O-])C12CC3(O)CC([N+](=O)[O-])(C1)CC([N+](=O)[O-])(C3)C2 | inactive: 0.06% |
| COc1ccc(OP(C)(=O)Nc2cccc(Cl)c2C)cc1 (stereo not given) | inactive: 3.85% |
| COc1ccccc1OP(C)(=O)Nc1cccc(Br)c1 (stereo not given) | inactive: -1.05% |
| COc1ccccc1OP(C)(=O)Nc1ccc(Cl)cc1 (stereo not given) | inactive: 4.3% |
| CC1=[N+](C)C(C)(C)Cc2ccccc21.O=[N+]([O-])c1cc([N+](=O)[O-])c(O)c([N+](=O)[O-])c1 | inactive: -8.13% |
| CCOC(=O)c1ccc(NP(C)(=O)Oc2cc(C)cc(C)c2)cc1 (stereo not given) | inactive: 5.41% |
| O=c1[nH]c2cc([N+](=O)[O-])c([N+](=O)[O-])c([N+](=O)[O-])c2[nH]1 | inactive: 5.26% |
| Cc1ccc(C)c(NP(C)(=O)Oc2ccccc2)c1 (stereo not given) | inactive: 12.1% |
| O=[N+]([O-])c1cc2[nH]c3cc([N+](=O)[O-])c([N+](=O)[O-])cc3c2cc1[N+](=O)[O-] | inactive: 14.4% |

| SMILES | inhibition |
| --- | --- |
| C=CCC1(CC=C)CCCCCCCCCCCN1.O=[N+]([O-])c1cc([N+](=O)[O-])c(O)c([N+](=O)[O-])c1 | inactive: 6.6% |
| CP(=O)(Nc1cccc(Br)c1)Oc1ccccc1 (stereo not given) | inactive: 5.44% |
| O=[N+]([O-])c1cnc(Nc2c([N+](=O)[O-])cc([N+](=O)[O-])cc2[N+](=O)[O-])c([N+](=O)[O-])c1 | inactive: 3.44% |
| CC(=O)NC1(NC(C)=O)CC(C)N(C)CC1C.O=[N+]([O-])c1cc([N+](=O)[O-])c(O)c([N+](=O)[O-])c1 (stereo not given) | inactive: -12.8% |
| CCN(CC)CCCOC(=O)C(O)(c1ccccc1)c1ccccc1 | inactive: -17.2% |
| Cc1ccc(NP(C)(=O)Oc2ccccc2)cc1 (stereo not given) | inactive: -11.3% |
| Cc1ccc2c(c1)c1nc(C)sc1n2C.O=[N+]([O-])c1cc([N+](=O)[O-])c(O)c([N+](=O)[O-])c1 | inactive: 0.52% |
| Cc1cc(C)cc(OP(C)(=O)Nc2ccc(F)cc2)c1 (stereo not given) | inactive: 3.35% |
| CCN(CC)c1nc(C)cc(C)n1.O=[N+]([O-])c1cc([N+](=O)[O-])c(O)c([N+](=O)[O-])c1 | inactive: 3.13% |
| CCOP(C)(=S)SCN(CC(=O)O)C(=O)OC (stereo not given) | inactive: -2.04% |
| O=[N+]([O-])c1c(NCCO)c([N+](=O)[O-])c(NCCO)c([N+](=O)[O-])c1NCCO | inactive: -6.75% |
| CC(C)Oc1ccc(NP(C)(=O)Oc2ccc(Cl)cc2)cc1 (stereo not given) | inactive: 5.36% |
| COc1ccccc1OP(C)(=O)Nc1ccc(Cl)cc1Cl (stereo not given) | inactive: -8.9% |
| CCCCOC(=O)Nc1c([N+](=O)[O-])cc([N+](=O)[O-])cc1[N+](=O)[O-] | inactive: -13.6% |
| O=C(O)C1(O)c2ccccc2-c2ccccc21 | inactive: 13.3% |
| CC(C)(C)c1ccc(OP(C)(N)=O)cc1 (stereo not given) | inactive: -4.33% |
| CC(CCN([N+](=O)[O-])S(=O)(=O)c1ccc([N+](=O)[O-])cc1)([N+](=O)[O-])[N+](=O)[O-] | inactive: -7.82% |
| CP1(=O)Oc2ccccc2Cc2ccccc2O1 | inactive: 5.36% |
| CCc1ccc(OP(C)(=O)Nc2ccccc2I)cc1 (stereo not given) | inactive: 3.5% |
| O=C(O)Cc1c([N+](=O)[O-])cc([N+](=O)[O-])cc1[N+](=O)[O-] | inactive: 6.66% |
| O=C(O)C(O)(c1ccccc1)c1ccccc1 | inactive: -4.21% |
| COc1ccccc1OP(C)(=O)Nc1ccc(C)cc1 (stereo not given) | inactive: 0.25% |
| Cc1ccc(NP(C)(=O)Oc2ccccc2)c(C)c1 (stereo not given) | inactive: -2.72% |
| CCOC(=O)c1ccc(NP(C)(=O)Oc2ccccc2)cc1 (stereo not given) | inactive: -3.65% |
| CP(=O)(O)OC(c1cccc(C(F)(F)F)c1)C(F)(F)F (stereo not given) | inactive: -0.26% |

| SMILES | inhibition |
| --- | --- |
| Cc1cc(C)cc(OP(C)(=O)NCc2ccccc2)c1 (stereo not given) | inactive: -5.39% |
| COc1ccccc1OP(C)(=O)Nc1cc(Cl)ccc1C (stereo not given) | inactive: 12.8% |
| CN(C)CCOC(=O)C(O)(c1ccccc1)c1ccccc1 | inactive: -11.9% |
| CP(=O)(O)OC(c1ccccc1)C(F)(F)F (stereo not given) | inactive: -8.98% |
| COc1ccc(NP(C)(=O)OC(c2ccccc2)C(F)(F)F)cc1 (stereo not given) | inactive: -2.6% |
| O=[N+]([O-])c1cc([N+](=O)[O-])c(CCO)c([N+](=O)[O-])c1 | inactive: -1.11% |
| CP(=O)(Nc1ccc(Cl)cc1)Oc1ccccc1 (stereo not given) | inactive: 8.3% |
| CP(=O)(Nc1ccccc1Br)Oc1ccccc1 (stereo not given) | inactive: -0.92% |
| CC(Nc1c([N+](=O)[O-])cc([N+](=O)[O-])cc1[N+](=O)[O-])c1ccc([N+](=O)[O-])cc1 (stereo not given) | inactive: -13.1% |
| COc1ccccc1OP(C)(=O)Nc1ccccc1 (stereo not given) | inactive: 10.8% |
| COc1cc2nc(C)sc2cc1NC(C)=O | inactive: -13.3% |
| CCOP(C)(=S)SCC(=O)NC(Cc1ccccc1)C(=O)O (stereo not given) | inactive: 2.17% |
| COc1ccc(NP(C)(=O)Oc2ccc(C(C)C)cc2)cc1 (stereo not given) | inactive: -1.5% |
| C=C(C)CC1NC2CC(C)(C)C1c1ccccc12.O=[N+]([O-])c1cc([N+](=O)[O-])c(O)c([N+](=O)[O-])c1 (stereo not given) | inactive: -8.94% |
| CP(=O)(NC(=O)Nc1ccccc1)Oc1ccccc1 (stereo not given) | inactive: 2.46% |
| CP(=O)(O)OC(c1cccc(Cl)c1)C(F)(F)F (stereo not given) | inactive: 2.55% |
| CCN(CC)P(=O)(c1c([N+](=O)[O-])cc([N+](=O)[O-])cc1[N+](=O)[O-])N(CC)CC | inactive: -1.37% |
| Cc1ccc(NP(C)(=O)Oc2ccccc2)cc1C (stereo not given) | inactive: 6.72% |
| CCOC(=O)c1ccc(NP(C)(=O)Oc2ccc(OC)cc2)cc1 (stereo not given) | inactive: 9.12% |
| Cc1cccc(NP(C)(=O)Oc2ccccc2)c1 (stereo not given) | inactive: -2.92% |
| CP(=O)(O)OC(c1ccc(Cl)cc1)C(F)(F)F (stereo not given) | inactive: 7.77% |
| COc1ccccc1OP(C)(=O)Nc1cccc(Cl)c1C (stereo not given) | inactive: 7.61% |
| Cc1ccc(Cl)cc1OP(C)(=O)Nc1cccc2nsnc12 (stereo not given) | inactive: -6.43% |
| CCOP(C)(=S)SCC(=O)NC(C)C(=O)O (stereo not given) | inactive: -15.1% |
| CP(=O)(Nc1ccccn1)Oc1ccc(Cl)cc1 (stereo not given) | inactive: 0.12% |

Reference: PubChem BioAssay AID1259422 (The Scripps Research Institute Molecular Screening Center, 2018)
